26 molecules from PubChem BioAssay AID504734 (The Scripps Research Institute Molecular Screening Center, 2011) can be followed below.

Amino acid sequences for entries named in this document (tags omitted).
UniProt Q9NR96, whole entry: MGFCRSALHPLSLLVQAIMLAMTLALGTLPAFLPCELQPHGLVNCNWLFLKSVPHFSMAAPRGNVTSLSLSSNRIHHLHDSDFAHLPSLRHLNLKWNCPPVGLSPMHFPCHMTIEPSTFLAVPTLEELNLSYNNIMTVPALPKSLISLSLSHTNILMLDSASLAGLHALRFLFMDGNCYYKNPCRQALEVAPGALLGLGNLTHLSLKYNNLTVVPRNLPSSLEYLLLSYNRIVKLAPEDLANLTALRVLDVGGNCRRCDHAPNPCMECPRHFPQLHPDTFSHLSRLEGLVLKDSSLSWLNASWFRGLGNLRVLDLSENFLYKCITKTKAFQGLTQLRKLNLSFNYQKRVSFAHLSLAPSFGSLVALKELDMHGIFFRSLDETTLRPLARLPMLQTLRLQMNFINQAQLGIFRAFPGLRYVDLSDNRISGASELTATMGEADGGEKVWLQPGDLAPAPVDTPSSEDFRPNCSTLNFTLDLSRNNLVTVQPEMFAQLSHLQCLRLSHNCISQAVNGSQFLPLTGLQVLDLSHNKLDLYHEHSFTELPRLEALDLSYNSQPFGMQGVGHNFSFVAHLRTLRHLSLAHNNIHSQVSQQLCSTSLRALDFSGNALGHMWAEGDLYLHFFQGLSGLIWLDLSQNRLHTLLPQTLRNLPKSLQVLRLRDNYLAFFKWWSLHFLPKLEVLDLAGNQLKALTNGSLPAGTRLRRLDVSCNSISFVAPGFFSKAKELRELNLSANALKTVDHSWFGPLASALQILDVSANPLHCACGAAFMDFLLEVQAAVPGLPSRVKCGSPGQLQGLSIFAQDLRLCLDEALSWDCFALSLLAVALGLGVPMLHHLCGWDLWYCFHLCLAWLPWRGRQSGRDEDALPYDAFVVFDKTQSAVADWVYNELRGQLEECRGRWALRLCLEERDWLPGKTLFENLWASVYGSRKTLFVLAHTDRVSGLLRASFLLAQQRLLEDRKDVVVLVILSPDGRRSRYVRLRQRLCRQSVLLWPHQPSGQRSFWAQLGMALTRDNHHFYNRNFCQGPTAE

Only a part is listed here, and it is no random draw. Some tests of the compounds listed are not included; inactive here does not mean inactive elsewhere. Calls of active or inactive are those of the source.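 Rule for the calls: active = inhibition above the mean over all tested compounds plus 3 SD (cut at about 21% in these data); inactive = the rest.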

For the test, the target named is Toll-like receptor 9 (Homo sapiens) + Myeloid differentiation primary response protein MyD88 (Homo sapiens) (UniProt Q9NR96+Q99836). Briefly: inhibitors of TLR9-MyD88 association in cells, primary screen, cell-based, CHO, BLA complementation, fluorescence (AID 504734).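 Note: 0% = DMSO only wells and 100% = clavulanate BLA inhibitor control wells.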 The following applies: CHO BLA complementation TLR9-MyD88, CCF4 FRET ratio; at 4.98 µM; hits give high values.
By inhibition is commonly meant the drop in the measured response relative to a control, in per cent. As to `Cc1ccc(C(=O)NCC2(N3CCCCC3)CCCCC2)cc1`, the inhibition was inactive: -2.72%.

`CC(C)N1C(=O)CC2(CCN(CCOC(=O)C(O)(c3ccccc3)c3ccccc3)CC2)C1=O`: the inhibition is inactive: -2.32%. Regarding `CCN(CC)CC(C)C(C)OC(=O)C(O)(c1ccccc1)c1ccccc1` (stereo unspecified), the inhibition is inactive: -14%.

Consider `COc1cc(SC)ccc1C(=O)NCC1(N(C)C)CCCCC1`, for which the inhibition is inactive: 13.8%. As for `CN1[C@@H]2CC[C@H]1CC(OC(=O)C(O)(c1ccccc1)c1ccccc1)C2` (stereo partly specified), the figure is inactive: 0.11%; as for `O=C(NCC1(N2CCCCC2)CCCCC1)c1cc([N+](=O)[O-])ccc1Cl`, inactive: -5.17%; as for `Cc1cc(C(=O)NCC2(N3CCCCC3)CCCCC2)ccc1[N+](=O)[O-]`, inactive: 1.15%.

On to `CCN1CCCC(OC(=O)C2(O)c3ccccc3C=Cc3ccccc32)C1` (stereo unspecified), for which the inhibition is inactive: -3.88%. `O=C(NCC1(N2CCCCC2)CCCCC1)c1cccc(Br)c1`: the inhibition was inactive: -11.2%. As for `COc1ccc(C(=O)NCC2(N(C)C)CCCCC2)cc1`, the figure is inactive: 3.82%; as for `C=CCN1CCN(CCOC(=O)C(O)(c2ccccc2)c2ccccc2)CC1`, inactive: -1.12%; as for `O=C(NCC1(N2CCCCC2)CCCCC1)c1cc(F)c(F)cc1Cl`, inactive: 1.32%. In the case of `Cc1ccccc1C(=O)NCC1(N2CCCCC2)CCCCC1` it was inactive: -9.91%; in that of `CN(C)C1CCCC1OC(=O)C(O)(c1ccccc1)c1ccccc1` (stereo unspecified), inactive: -0.82%; in that of `CN(C)c1ccc(C(=O)NCC2(N(C)C)CCCCC2)cc1`, inactive: -6.35%. As for `O=C(NCC1(N2CCCCC2)CCCCC1)c1cccc(Cl)c1`, the figure is inactive: -8.43%.

Take `COc1cccc(C(=O)NCC2(N3CCCCC3)CCCCC2)c1`: the inhibition was inactive: -4.38%.

As to `COc1ccc(Cl)cc1C(=O)NCC1(N(C)C)CCCCC1`, the inhibition was inactive: -2.64%.

In the case of `COc1cc(C(=O)NCC2(N(C)C)CCCCC2)c([N+](=O)[O-])cc1OC`, the inhibition is inactive: -2.73%. In the case of `CN(C)C1(CNC(=O)c2ccc(Br)cc2)CCCCC1` it was inactive: -7.06%; in that of `CN(C)c1cccc(C(=O)NCC2(N(C)C)CCCCC2)c1`, inactive: 7.24%; in that of `CC(C)Oc1ccc(C(=O)NCC2(N(C)C)CCCCC2)cc1`, inactive: -0.52%. As for `O=C(OCCN1CCCC1)C(O)(c1ccccc1)c1ccccc1`, the figure is inactive: 4.51%; as for `COc1ccc(Br)c(C(=O)NCC2(N3CCCCC3)CCCCC2)c1`, inactive: 0.26%. As for `C=C(C)C#CC(O)(C(=O)OC1CCN(C)CC1)c1ccccc1` (stereo unspecified), the figure is inactive: -5.57%. Take `O=C(OC1CN2CCC1CC2)C(CO)(c1ccccc1)c1ccccc1` (stereo unspecified): the inhibition was inactive: -1.47%.
